Experimental data reported in PMC2365771, “Endothelium-dependent relaxation of rat aorta to a histamine H3 agonist is reduced by inhibitors of nitric oxide synthase, guanylate cyclase and Na^+,K^+-ATPase” (Mediators of Inflammation, 1996).

By UniProt entry, the sequences of proteins in these tests, tags left out. Where a name states a change or a piece, a line headed by the entry shows the natural chain unless it says otherwise.
UniProt Q9QYN8: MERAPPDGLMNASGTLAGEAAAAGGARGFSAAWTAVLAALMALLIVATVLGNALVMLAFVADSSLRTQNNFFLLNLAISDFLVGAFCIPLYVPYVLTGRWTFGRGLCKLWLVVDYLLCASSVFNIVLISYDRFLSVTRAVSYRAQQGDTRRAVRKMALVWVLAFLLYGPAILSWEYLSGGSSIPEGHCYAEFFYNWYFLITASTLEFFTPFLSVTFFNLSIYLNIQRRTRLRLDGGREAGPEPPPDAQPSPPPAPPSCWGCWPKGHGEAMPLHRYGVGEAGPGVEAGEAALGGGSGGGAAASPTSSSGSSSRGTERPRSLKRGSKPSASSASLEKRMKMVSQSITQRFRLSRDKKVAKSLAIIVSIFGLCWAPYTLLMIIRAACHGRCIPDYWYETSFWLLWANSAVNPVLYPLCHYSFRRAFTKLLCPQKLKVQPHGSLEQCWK

Target: T1, histamine H3 receptor (Rattus norvegicus, UniProt Q9QYN8)
T1 construct: gene Hrh3
Details: aorta rings

Work on S=C(NC1CCCCC1)N1CCC(c2cnc[nH]2)CC1 [thioperamide] yielded a Kb of 0.617 nM.
